This note sets out measurements from PubChem BioAssay AID1203 (The Scripps Research Institute Molecular Screening Center, 2008).

Molecules are shown by their SMILES. The list shows a part of the results, in another mix than the full data. Activity calls are given as the source filed them.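 How the source made its calls: active means activation above the mean across all tested compounds plus 3 SD, cutoff set per campaign (cut at about 5.5% in these data); inactive means the rest.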

The test in a line: Hsp70 promoter-driven reporter induction – cell-based, HeLa, Hsp70 promoter luciferase, luminescence, 10 µM, primary screen (AID 1203).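 Further: 100% = MG132 at 30 µM as the positive control and 0% = DMSO.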 The note with it: at 10 µM, active compounds read high, scaled: vehicle 0, proteasome-inhibitor control 100%.
For `CC1=NCCc2c1[nH]c1ccccc21.O=[N+]([O-])c1cc([N+](=O)[O-])c(O)c([N+](=O)[O-])c1`, the activation was inactive: -0.24%. With `Cc1cc(C)cc(OP(C)(=O)Nc2ccc(C)cc2C)c1` (configuration not stated), the activation is inactive: -0.29%.

Turning to `CCOC(=O)c1ccc(NP(C)(=O)Oc2cc(C)cc(C)c2)cc1` (configuration not stated), the activation is inactive: -0.19%. As to `CP(=O)(Nc1cccc(Br)c1)Oc1ccccc1` (configuration not stated), the activation was inactive: -0.04%. With `Cc1cc(C)cc(OP(C)(=O)Nc2ccccn2)c1` (configuration not stated), the activation was inactive: -0.37%.

As for `Cc1ccc(C)c(NP(C)(=O)Oc2ccccc2)c1` (configuration not stated), the activation is inactive: -0.28%. For the molecule `O=[N+]([O-])c1cc([N+](=O)[O-])c(-n2nnc3ccccc32)c([N+](=O)[O-])c1`, the activation is inactive: -0.2%. Regarding `Cc1nc2ccc3ccccc3c2s1.O=[N+]([O-])c1cc([N+](=O)[O-])c(O)c([N+](=O)[O-])c1`, the activation is inactive: -0.26%.

Regarding `CP(=O)(Nc1ccc(SC(F)(F)F)cc1)Oc1ccccc1` (configuration not stated), the activation is inactive: -0.35%.

In the case of `CCCOc1ccc(NP(C)(=O)Oc2ccc(Cl)cc2)cc1` (configuration not stated), the activation was inactive: -0.05%. For the molecule `COc1ccccc1OP(C)(=O)Nc1c(C)cccc1C` (configuration not stated), the activation is inactive: -0.41%. Consider `CN1CCCCC1COC(=O)C1(O)c2ccccc2CCc2ccccc21` (configuration not stated), for which the activation was inactive: -0.29%.

On to `COc1ccccc1OP(C)(=O)Nc1ccccc1` (configuration not stated), for which the activation is inactive: -0.42%. As for `CP(=O)(Nc1ccccc1Br)Oc1ccccc1` (configuration not stated), the figure is inactive: -0.36%; as for `CP(=S)(Nn1cnnc1)Oc1ccccc1` (configuration not stated), inactive: 0.11%; as for `Cc1cc(C)cc(OP(C)(=O)Nc2ccc(SC(F)(F)F)cc2)c1` (configuration not stated), inactive: -0.33%. For `CP(=O)(NC(=O)Nc1ccccc1)Oc1ccccc1` (configuration not stated), the activation was inactive: 0.03%.

With `CP(=O)(Oc1ccccc1)OC(c1ccccc1)C(F)(F)F` (configuration not stated), the activation is inactive: -0.07%.

For `Cc1cccc(C)c1OP(C)(=O)Nc1ccc(SC(F)(F)F)cc1` (configuration not stated), the activation is inactive: -0.35%. For `CP(=O)(Nc1ccccn1)Oc1ccc(Cl)cc1` (configuration not stated), the activation was inactive: -0.32%. `CCOP(C)(=S)SCC(=O)NC(C)C(=O)O` (configuration not stated): the activation was inactive: -0.02%. In the case of `CCOC(=O)c1ccc(NP(C)(=O)Oc2ccc(OC)cc2)cc1` (configuration not stated) it was inactive: -0.39%; in that of `CCN(CC)CCCOC(=O)C(O)(c1ccccc1)c1ccccc1`, inactive: -0.23%; in that of `Cc1cccc(C)c1OP(C)(N)=O` (configuration not stated), inactive: -0.06%. `CC(C)(C)c1ccc(OP(C)(=O)Nc2ccc(SC(F)(F)F)cc2)cc1` (configuration not stated): the activation is inactive: -0.44%. As to `O=[N+]([O-])c1ccc2c(c1)C=Nc1ccccc1O2`, the activation is inactive: 0.04%. In the case of `COc1ccc(OP(C)(=O)Nc2cccc(F)c2)cc1` (configuration not stated), the activation was inactive: -0.14%.
